In US20140100156A1 (SANOFI, priority 2012, published 2014) one finds EC50 data, which are given here for eight molecules.

Sequences of proteins named here, by UniProt entry; tags and fusion partners are left off. Residues count along the entry.
UniProt P47871, 26-477: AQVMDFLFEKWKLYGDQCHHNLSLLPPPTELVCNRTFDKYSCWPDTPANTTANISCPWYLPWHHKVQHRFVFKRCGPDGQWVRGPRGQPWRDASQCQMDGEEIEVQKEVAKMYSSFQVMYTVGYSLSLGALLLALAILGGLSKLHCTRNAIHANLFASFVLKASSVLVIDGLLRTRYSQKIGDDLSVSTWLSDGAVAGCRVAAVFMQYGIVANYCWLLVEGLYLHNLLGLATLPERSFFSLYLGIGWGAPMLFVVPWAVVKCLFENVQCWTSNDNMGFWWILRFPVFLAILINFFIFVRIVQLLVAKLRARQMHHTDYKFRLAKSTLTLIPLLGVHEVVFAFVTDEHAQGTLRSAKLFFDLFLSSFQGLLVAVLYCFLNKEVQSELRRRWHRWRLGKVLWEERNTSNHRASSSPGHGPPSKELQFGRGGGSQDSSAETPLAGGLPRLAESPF
UniProt P43220, 24-463: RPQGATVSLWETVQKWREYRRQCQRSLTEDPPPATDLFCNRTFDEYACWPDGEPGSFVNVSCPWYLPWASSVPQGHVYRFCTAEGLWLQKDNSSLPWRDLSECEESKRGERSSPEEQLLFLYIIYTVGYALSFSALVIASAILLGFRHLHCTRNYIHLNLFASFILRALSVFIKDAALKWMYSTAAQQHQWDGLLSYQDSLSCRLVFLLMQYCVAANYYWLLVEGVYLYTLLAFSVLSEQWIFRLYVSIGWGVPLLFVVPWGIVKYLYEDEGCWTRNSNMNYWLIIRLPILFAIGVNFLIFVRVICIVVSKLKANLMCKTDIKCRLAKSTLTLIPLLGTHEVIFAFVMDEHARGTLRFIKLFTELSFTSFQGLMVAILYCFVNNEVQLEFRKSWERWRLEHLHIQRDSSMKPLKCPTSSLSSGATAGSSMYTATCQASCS

Where two headings read alike, the source gives them in different places.

For one assay, the target named is T1, human glucagon receptor (Homo sapiens, UniProt P47871).
T1 construct: expressed in transfected cells; host or cells: HEK-293
In words: cAMP response (HTRF) of HEK-293 cells stably expressing human glucagon receptor. Format: cell-based. (In TR-FRET formats the signal depends on donor and acceptor labels being close together.)

The target in another assay is T2, human GLP-1 receptor (Homo sapiens, UniProt P43220).
T2 construct: expressed in transfected cells; host or cells: HEK-293
Briefly: cAMP response (HTRF) of HEK-293 cells stably expressing human GLP-1 receptor. The class given is cell-based.

Where [1] appears, read: Table 5, cAMP, HEK-293, read-out: EC50 hGlucagon-R.
[2] abbreviates: Table 5, cAMP, HEK-293, read-out: EC50 hGLP-1R.

What is called EC50 is the concentration giving half of the maximal effect. Consider `CCCCCCCCCCCCCCCC(=O)N[C@@H](CCC(=O)NCCCC[C@H](NC(=O)[C@H](CCC(N)=O)NC(=O)[C@H](CCCCN)NC(=O)[C@H](CO)NC(=O)[C@H](CC(C)C)NC(=O)[C@H](CC(=O)O)NC(=O)[C@H](CO)NC(=O)[C@@H](NC(=O)[C@H](Cc1ccccc1)NC(=O)[C@@H](NC(=O)CNC(=O)[C@H](CCC(N)=O)NC(=O)[C@@H](CO)NC(=O)[C@@H](N)Cc1c[nH]cn1)[C@@H](C)O)[C@@H](C)O)C(=O)N[C@@H](CC(=O)O)C(=O)N[C@@H](CO)C(=O)N[C@@H](CCCNC(=N)N)C(=O)N[C@@H](CCCNC(=N)N)C(=O)N[C@@H](C)C(=O)N[C@@H](CCC(N)=O)C(=O)N[C@@H](CC(=O)O)C(=O)N[C@@H](Cc1ccccc1)C(=O)N[C@H](C(=O)N[C@@H](CCC(=O)O)C(=O)N[C@@H](Cc1c[nH]c2ccccc12)C(=O)N[C@@H](CC(C)C)C(=O)N[C@@H](CCCCN)C(=O)N[C@@H](CC(N)=O)C(=O)NCC(=O)NCC(=O)N1CCC[C@H]1C(=O)N[C@@H](CO)C(=O)N[C@@H](CO)C(=O)NCC(=O)N[C@@H](C)C(=O)N1CCC[C@H]1C(=O)N1CCC[C@H]1C(=O)N1CCC[C@H]1C(=O)N[C@@H](CO)C(=O)NCc1ccccc1)[C@@H](C)CC)C(=O)O` [compound 99], for which the EC50 came to 2.6 pM on human glucagon receptor (setting [1]) and 15.9 pM on human GLP-1 receptor (setting [2]).
In the case of `CC[C@H](C)[C@H](NC(=O)[C@H](Cc1ccccc1)NC(=O)[C@H](CC(C)C)NC(=O)[C@H](CCCNC(=N)N)NC(=O)[C@H](C)NC(=O)[C@H](C)NC(=O)[C@H](CCC(=O)O)NC(=O)[C@H](CCC(=O)O)NC(=O)[C@H](CC(=O)O)NC(=O)[C@H](CC(C)C)NC(=O)[C@H](CCC(N)=O)NC(=O)[C@H](CCCCN)NC(=O)[C@H](CO)NC(=O)[C@H](CC(C)C)NC(=O)[C@H](CC(=O)O)NC(=O)[C@H](CO)NC(=O)[C@@H](NC(=O)[C@H](Cc1ccccc1)NC(=O)[C@@H](NC(=O)CNC(=O)[C@H](CCC(N)=O)NC(=O)C(C)(C)NC(=O)[C@@H](N)Cc1c[nH]cn1)[C@@H](C)O)[C@@H](C)O)C(=O)N[C@@H](CCC(=O)O)C(=O)N[C@@H](Cc1c[nH]c2ccccc12)C(=O)N[C@@H](CC(C)C)C(=O)N[C@@H](CCCCN)C(=O)N[C@@H](C)C(=O)NCC(=O)NCC(=O)N1CCC[C@H]1C(=O)N[C@@H](CO)C(=O)N[C@@H](CO)C(=O)NCC(=O)N[C@@H](C)C(=O)N1CCC[C@H]1C(=O)N1CCC[C@H]1C(=O)N1CCC[C@H]1C(=O)N[C@@H](CO)C(N)=O` [compound 224], the EC50 at human glucagon receptor (Table 8, comparison testing of position 14, read-out: EC50 hGlucagon-R) was found to be 2930 pM; at human GLP-1 receptor (Table 8, comparison testing of position 14, read-out: EC50 hGLP-1R) it was 1.3 pM.
For `CCCCCCCCCCCCCCCC(=O)N[C@@H](CCC(=O)NCCCC[C@H](NC(=O)[C@H](CCC(N)=O)NC(=O)[C@H](CCCCN)NC(=O)[C@H](CO)NC(=O)[C@H](CC(C)C)NC(=O)[C@H](CC(=O)O)NC(=O)[C@H](CO)NC(=O)[C@@H](NC(=O)[C@H](Cc1ccccc1)NC(=O)[C@@H](NC(=O)CNC(=O)[C@H](CCC(N)=O)NC(=O)[C@@H](CO)NC(=O)[C@@H](N)Cc1c[nH]cn1)[C@@H](C)O)[C@@H](C)O)C(=O)N[C@@H](CC(=O)O)C(=O)N[C@@H](CO)C(=O)N[C@@H](CCCNC(=N)N)C(=O)N[C@@H](CCCNC(=N)N)C(=O)N[C@@H](C)C(=O)N[C@@H](CCC(N)=O)C(=O)N[C@@H](CC(=O)O)C(=O)N[C@@H](Cc1ccccc1)C(=O)N[C@H](C(=O)N[C@@H](CCC(=O)O)C(=O)N[C@@H](Cc1c[nH]c2ccccc12)C(=O)N[C@@H](CC(C)C)C(=O)N[C@@H](CCCCN)C(=O)N[C@@H](CO)C(=O)NCC(=O)NCC(=O)N1CCC[C@H]1C(=O)N[C@@H](CO)C(=O)N[C@@H](CO)C(=O)NCC(=O)N[C@@H](C)C(=O)N1CCC[C@H]1C(=O)N1CCC[C@H]1C(=O)N1CCC[C@H]1C(=O)N[C@@H](CO)C(N)=O)[C@@H](C)CC)C(=O)O` [compound 128], the results for the EC50 at human glucagon receptor (setting [1]) and on human GLP-1 receptor (setting [2]) were 1.6 pM and 6.2 pM, respectively.
`CC[C@H](C)[C@H](NC(=O)[C@H](Cc1ccccc1)NC(=O)[C@H](CC(=O)O)NC(=O)[C@H](CCC(N)=O)NC(=O)[C@H](C)NC(=O)[C@H](C)NC(=O)[C@H](CCCNC(=N)N)NC(=O)[C@H](CO)NC(=O)[C@H](CCC(=O)O)NC(=O)[C@H](CCCCNC(=O)CCCNC(=O)CCC(=O)Oc1c(C)c(C)c2c(c1C)CC[C@@](C)(CCC[C@H](C)CCC[C@H](C)CCCC(C)C)O2)NC(=O)[C@H](CCC(N)=O)NC(=O)[C@H](CCCCN)NC(=O)[C@H](CO)NC(=O)[C@H](CC(C)C)NC(=O)[C@H](CC(=O)O)NC(=O)[C@H](CO)NC(=O)[C@@H](NC(=O)[C@H](Cc1ccccc1)NC(=O)[C@@H](NC(=O)CNC(=O)[C@H](CCC(N)=O)NC(=O)[C@@H](CO)NC(=O)[C@@H](N)Cc1c[nH]cn1)[C@@H](C)O)[C@@H](C)O)C(=O)N[C@@H](CCC(=O)O)C(=O)N[C@@H](Cc1c[nH]c2ccccc12)C(=O)N[C@@H](CC(C)C)C(=O)N[C@@H](CCCCN)C(=O)N[C@@H](C)C(=O)NCC(=O)NCC(=O)N1CCC[C@H]1C(=O)N[C@@H](CO)C(=O)N[C@@H](CO)C(=O)NCC(=O)N[C@@H](C)C(=O)N1CCC[C@H]1C(=O)N1CCC[C@H]1C(=O)N1CCC[C@H]1C(=O)N[C@@H](CO)C(N)=O` [compound 58]: the EC50 at human glucagon receptor (EC50 hGlucagon-R, Table 5, cAMP, HEK-293) stood at 15.1 pM; at human GLP-1 receptor (EC50 hGLP-1R, Table 5, cAMP, HEK-293), 45.6 pM.
As to `CCCCCCCCCCCCCCCCCC(=O)N[C@@H](CCC(=O)NCCCC[C@H](NC(=O)[C@H](CCC(N)=O)NC(=O)[C@H](CCCCN)NC(=O)[C@H](CO)NC(=O)[C@H](CC(C)C)NC(=O)[C@H](CC(=O)O)NC(=O)[C@H](CO)NC(=O)[C@@H](NC(=O)[C@H](Cc1ccccc1)NC(=O)[C@@H](NC(=O)CNC(=O)[C@H](CCC(N)=O)NC(=O)C(C)(C)NC(=O)[C@@H](N)Cc1c[nH]cn1)[C@@H](C)O)[C@@H](C)O)C(=O)N[C@@H](CC(=O)O)C(=O)N[C@@H](CO)C(=O)N[C@@H](CCCNC(=N)N)C(=O)N[C@@H](CCCNC(=N)N)C(=O)N[C@@H](C)C(=O)N[C@@H](CCC(N)=O)C(=O)N[C@@H](CC(C)C)C(=O)N[C@@H](Cc1ccccc1)C(=O)N[C@H](C(=O)N[C@@H](CCC(=O)O)C(=O)N[C@@H](Cc1c[nH]c2ccccc12)C(=O)N[C@@H](CC(C)C)C(=O)N[C@@H](CCCCN)C(=O)N[C@@H](C)C(=O)NCC(=O)NCC(=O)N1CCC[C@H]1C(=O)N[C@@H](CO)C(=O)N[C@@H](CO)C(=O)NCC(=O)N[C@@H](C)C(=O)N1CCC[C@H]1C(=O)N1CCC[C@H]1C(=O)N1CCC[C@H]1C(=O)N[C@@H](CO)C(N)=O)[C@@H](C)CC)C(=O)O` [compound 198], the EC50 at human glucagon receptor (setting [1]) amounted to 2.4 pM; at human GLP-1 receptor (setting [2]), 8.2 pM.
On the same counts, the results for `CCCCCCCCCCCCCCCCCC(=O)N[C@@H](CCC(=O)NCCCC[C@H](NC(=O)[C@H](CCC(N)=O)NC(=O)[C@H](CCCCN)NC(=O)[C@H](CO)NC(=O)[C@H](CC(C)C)NC(=O)[C@H](CC(=O)O)NC(=O)[C@H](CO)NC(=O)[C@@H](NC(=O)[C@H](Cc1ccccc1)NC(=O)[C@@H](NC(=O)CNC(=O)[C@H](CCC(N)=O)NC(=O)[C@@H](CO)NC(=O)[C@@H](N)Cc1c[nH]cn1)[C@@H](C)O)[C@@H](C)O)C(=O)N[C@@H](CCC(=O)O)C(=O)N[C@@H](CO)C(=O)N[C@@H](CCCNC(=N)N)C(=O)N[C@@H](C)C(=O)N[C@@H](C)C(=O)N[C@@H](CCC(N)=O)C(=O)N[C@@H](CC(=O)O)C(=O)N[C@@H](Cc1ccccc1)C(=O)N[C@H](C(=O)N[C@@H](CCC(=O)O)C(=O)N[C@@H](Cc1c[nH]c2ccccc12)C(=O)N[C@@H](CC(C)C)C(=O)N[C@@H](CCCCN)C(=O)N[C@@H](C)C(=O)NCC(=O)NCC(=O)N1CCC[C@H]1C(=O)N[C@@H](CO)C(=O)N[C@@H](CO)C(=O)NCC(=O)N[C@@H](C)C(=O)N1CCC[C@H]1C(=O)N1CCC[C@H]1C(=O)N1CCC[C@H]1C(=O)N[C@@H](CO)C(N)=O)[C@@H](C)CC)C(=O)O` [compound 51] are 3 pM and 2.7 pM.
On the same counts, the results for `CCCCCCCCCCCCCCCCCC(=O)N[C@@H](CCC(=O)NCCCC[C@H](NC(=O)[C@H](CCC(N)=O)NC(=O)[C@H](CCCCN)NC(=O)[C@H](CO)NC(=O)[C@H](CC(C)C)NC(=O)[C@H](CC(=O)O)NC(=O)[C@H](CO)NC(=O)[C@@H](NC(=O)[C@H](Cc1ccccc1)NC(=O)[C@@H](NC(=O)CNC(=O)[C@H](CCC(N)=O)NC(=O)C(C)(C)NC(=O)[C@@H](N)Cc1c[nH]cn1)[C@@H](C)O)[C@@H](C)O)C(=O)N[C@@H](CC(=O)O)C(=O)N[C@@H](CCC(=O)O)C(=O)N[C@@H](CCC(=O)O)C(=O)N[C@@H](C)C(=O)N[C@@H](C)C(=O)N[C@@H](CCCCN)C(=O)N[C@@H](CC(C)C)C(=O)N[C@@H](Cc1ccccc1)C(=O)N[C@H](C(=O)N[C@@H](CCC(=O)O)C(=O)N[C@@H](Cc1c[nH]c2ccccc12)C(=O)N[C@@H](CC(C)C)C(=O)N[C@@H](CCCCN)C(=O)N[C@@H](C)C(=O)NCC(=O)NCC(=O)N1CCC[C@H]1C(=O)N[C@@H](CO)C(=O)N[C@@H](CO)C(=O)NCC(=O)N[C@@H](C)C(=O)N1CCC[C@H]1C(=O)N1CCC[C@H]1C(=O)N1CCC[C@H]1C(=O)N[C@@H](CO)C(N)=O)[C@@H](C)CC)C(=O)O` [compound 213] are 59.1 pM and 2.7 pM.
On the same counts, the results for `CCCCCCCCCCCCCCCC(=O)N[C@@H](CCC(=O)NCCCC[C@H](NC(=O)[C@H](CCC(N)=O)NC(=O)[C@H](CCCCN)NC(=O)[C@H](CO)NC(=O)[C@H](CC(C)C)NC(=O)[C@H](CC(=O)O)NC(=O)[C@H](CO)NC(=O)[C@@H](NC(=O)[C@H](Cc1ccccc1)NC(=O)[C@@H](NC(=O)CNC(=O)[C@H](CCC(N)=O)NC(=O)[C@@H](CO)NC(=O)[C@@H](N)Cc1c[nH]cn1)[C@@H](C)O)[C@@H](C)O)C(=O)N[C@@H](CC(=O)O)C(=O)N[C@@H](CO)C(=O)N[C@@H](CCCNC(=N)N)C(=O)N[C@@H](CCCNC(=N)N)C(=O)N[C@@H](C)C(=O)N[C@@H](CCC(N)=O)C(=O)N[C@@H](CC(=O)O)C(=O)N[C@@H](Cc1ccccc1)C(=O)N[C@H](C(=O)N[C@@H](CCC(=O)O)C(=O)N[C@@H](Cc1c[nH]c2ccccc12)C(=O)N[C@@H](CC(C)C)C(=O)N[C@@H](CCCCN)C(=O)NC(C)(C)C(=O)NCC(=O)NCC(=O)N1CCC[C@H]1C(=O)N[C@@H](CO)C(=O)N[C@@H](CO)C(=O)NCC(=O)N[C@@H](C)C(=O)N1CCC[C@H]1C(=O)N1CCC[C@H]1C(=O)N1CCC[C@H]1C(=O)N[C@@H](CO)C(N)=O)[C@@H](C)CC)C(=O)O` [compound 78] are 1.6 pM and 17.8 pM.
